pIC50: −log10 of the molar value. Like-named read-outs stand apart in the source and are kept apart here.
What was measured:
BTK protein kinase = BTK protein kinase (Homo sapiens (Human), UniProt Q06187); test: In vitro inhibition activity (enzymatic activity), ADP-Glo, BTK; type: biochemical; conditions: read-out: BTK protein kinase IC50; ATP 10 μM
[1] = tested on: MV4-11 cell lines carrying FLT3/ITD mutant gene; conditions: 24 hours
[2] = tested on: Signaling pathways of FLT3 in MV4-11 and MOLM-14 cell lines; conditions: treated for 4 hours

The chains behind the UniProt entries cited, without tags or fusion partners. Where a name states a change or a piece, a line headed by the entry shows the natural chain unless it says otherwise.
UniProt Q06187: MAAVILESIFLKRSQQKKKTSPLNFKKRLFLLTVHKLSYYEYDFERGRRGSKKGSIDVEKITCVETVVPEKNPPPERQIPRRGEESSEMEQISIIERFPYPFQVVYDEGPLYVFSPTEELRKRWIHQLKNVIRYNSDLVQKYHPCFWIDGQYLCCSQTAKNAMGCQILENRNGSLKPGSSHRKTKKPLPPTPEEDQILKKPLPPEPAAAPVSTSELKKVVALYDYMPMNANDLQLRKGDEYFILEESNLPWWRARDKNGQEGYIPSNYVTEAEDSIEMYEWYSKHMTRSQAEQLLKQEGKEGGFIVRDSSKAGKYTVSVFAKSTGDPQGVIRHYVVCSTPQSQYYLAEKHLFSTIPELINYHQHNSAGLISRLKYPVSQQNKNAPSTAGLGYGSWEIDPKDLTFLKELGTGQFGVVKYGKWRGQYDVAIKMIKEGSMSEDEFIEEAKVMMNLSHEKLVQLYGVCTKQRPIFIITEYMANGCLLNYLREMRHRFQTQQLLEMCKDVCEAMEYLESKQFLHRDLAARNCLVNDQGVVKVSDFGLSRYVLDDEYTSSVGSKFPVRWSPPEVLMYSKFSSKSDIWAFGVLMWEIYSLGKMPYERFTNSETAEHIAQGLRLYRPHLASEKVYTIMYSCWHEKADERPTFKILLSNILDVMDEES

SMILES	pIC50 (BTK protein kinase)	number of cells captured in G0-G1 phase ([1]; MV4-11, 0.01 μM) [%]	number of cells captured in G0-G1 phase ([1]; MV4-11, 0.1 μM) [%]	C-Myc (degradation; for AC220 phosphorylation) [2]	phosphorylation of STAT5 [2]	phosphorylation of protein kinase FLT3 [2]
CS(=O)(=O)NC1CCC(n2nc(-c3ccc(Oc4ccccc4)cc3)c3c(N)ncnc32)CC1 (stereo not drawn) [Compound 78, N-(4-(4-amino-3-(4-phenoxyphenyl)-1H-pyrazolo[3,4-d]pyrimidin-1-yl)cyclohexyl)methanesulfonamide]	6.46	–	–	–	–	–
CC(C)(C)c1cc(NC(=O)Nc2ccc(-c3cn4c(n3)sc3cc(OCCN5CCOCC5)ccc34)cc2)no1 [AC220, reference compound]	–	90.49	96.53	strongly inhibited	strongly inhibited	strongly inhibited
